The values that follow are results of earlier work, collected in publication PMC3568227.

Amino acid sequences for entries named in this document (tags omitted). A change or cut given only in a name is not applied to a line headed by its entry.
UniProt Q13421: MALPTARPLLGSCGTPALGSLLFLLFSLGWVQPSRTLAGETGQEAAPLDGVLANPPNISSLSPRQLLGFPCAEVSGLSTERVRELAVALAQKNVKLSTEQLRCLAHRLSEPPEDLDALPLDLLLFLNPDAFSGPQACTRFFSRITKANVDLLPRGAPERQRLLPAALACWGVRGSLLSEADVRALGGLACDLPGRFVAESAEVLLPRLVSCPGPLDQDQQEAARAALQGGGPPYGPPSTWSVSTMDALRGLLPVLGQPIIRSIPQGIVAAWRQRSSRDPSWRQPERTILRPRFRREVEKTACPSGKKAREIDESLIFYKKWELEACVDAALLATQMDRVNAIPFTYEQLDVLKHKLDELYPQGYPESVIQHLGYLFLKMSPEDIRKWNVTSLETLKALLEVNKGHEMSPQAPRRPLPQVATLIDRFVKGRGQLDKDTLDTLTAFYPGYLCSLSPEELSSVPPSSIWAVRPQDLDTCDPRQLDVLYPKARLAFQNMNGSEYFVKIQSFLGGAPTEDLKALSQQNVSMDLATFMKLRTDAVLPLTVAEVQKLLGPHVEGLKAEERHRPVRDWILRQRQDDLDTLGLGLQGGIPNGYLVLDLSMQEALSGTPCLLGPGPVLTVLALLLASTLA

For the series, the target named is MUC16 (Homo sapiens) (UniProt Q8WXI7).

In general, Kd refers to the constant that tells how readily two partners part at equilibrium. In the case of mesothelin (from UniProt Q13421), the Kd was 5 nM.
